# In PubChem BioAssay AID648 (SRMLSC, 2007):
# Only a part is listed here, and it is no random draw. Calls of active or inactive are those of the source.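 The calls were made as follows: active = viability at or below 30%; inactive = viability above 30%.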
# Assay: inhibitors of HUVEC proliferation, primary screen, cell-based, 384-well (AID 648);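 also: 100% = median luminescence of DMSO-only cell control wells on each plate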
# Settings: CellTiter-Glo luminescence, 72 h, stronger effect = lower value, screened at 10 µM (by protocol)
row,Structure (SMILES),viability
1,CP(=S)(Nn1cnnc1)Oc1ccccc1 (configuration not stated),inactive: 89.7%
2,CP(=O)(Nc1ccccn1)Oc1ccc(Cl)cc1 (configuration not stated),inactive: 93.9%
3,CCOP(C)(=S)SCC(=O)NC(C)C(=O)O (configuration not stated),inactive: 102%
4,CP(=O)(NC(=O)Nc1ccccc1)Oc1ccccc1 (configuration not stated),inactive: 98.2%
5,COc1ccc(OP(C)(=O)Nc2cccc(F)c2)cc1 (configuration not stated),inactive: 102%
6,COc1ccccc1OP(C)(=O)Nc1ccc(C)cc1 (configuration not stated),inactive: 102%
7,Cc1ccc(NP(C)(=O)Oc2ccccc2)c(C)c1 (configuration not stated),inactive: 97%
8,Cc1cc(C)cc(OP(C)(=O)Nc2ccccn2)c1 (configuration not stated),inactive: 95.1%
9,Cc1ccc(C)c(NP(C)(=O)Oc2ccccc2)c1 (configuration not stated),inactive: 102%
10,Cc1cc(C)cc(OP(C)(=O)Nc2ccc(C)cc2C)c1 (configuration not stated),inactive: 89.3%
11,Cc1nc2ccc3ccccc3c2s1.O=[N+]([O-])c1cc([N+](=O)[O-])c(O)c([N+](=O)[O-])c1,inactive: 92.6%
12,COc1ccccc1OP(C)(=O)Nc1c(C)cccc1C (configuration not stated),inactive: 106%
13,CN(C)CCOC(=O)C(O)(c1ccccc1)C1CCCCC1 (configuration not stated),inactive: 98.1%
14,Cc1ccccc1NP(C)(=O)Nc1ccccc1C,inactive: 93.2%
15,CP(=O)(Nc1ccc2c(c1)OCCO2)Oc1ccccc1 (configuration not stated),inactive: 94.5%
16,CCOP(C)(=S)SCC(=O)NC(C)(CC)C(=O)O (configuration not stated),inactive: 90.1%

row,Structure (SMILES),viability
1,CP(=O)(Nc1ccccc1F)Oc1ccccc1 (configuration not stated),inactive: 101%
2,CP(=O)(Nc1ccccc1)Oc1ccc(F)cc1 (configuration not stated),inactive: 95.7%
3,CCN(CC)CCCOC(=O)C(O)(c1ccccc1)C1CCCCC1 (configuration not stated),inactive: 86%
4,Cc1nc2ccc3ccccc3c2o1.O=[N+]([O-])c1cc([N+](=O)[O-])c(O)c([N+](=O)[O-])c1,inactive: 98.2%
5,COc1ccccc1OP(C)(=O)Nc1ccc(C)c(C)c1 (configuration not stated),inactive: 57.8%
6,CCc1ccc(OP(C)(=O)O)cc1,inactive: 101%
7,CP(=O)(Nc1ccccn1)Oc1ccccc1 (configuration not stated),inactive: 91%
8,COc1ccccc1OP(C)(=O)Nc1ccc(C)cc1C (configuration not stated),inactive: 94.2%
9,Cc1c(NP(C)(=O)Oc2ccc(C(C)C)cc2)c(=O)n(-c2ccccc2)n1C (configuration not stated),inactive: 100%
10,CN(C)CCOC(=O)C(O)(c1ccccc1)C1CCCC1 (configuration not stated),inactive: 103%
11,COc1ccc(OP(C)(=O)Nc2ccccn2)cc1 (configuration not stated),inactive: 101%
12,CP(=O)(Nc1ccc(Cl)cc1)Oc1ccc(F)cc1 (configuration not stated),inactive: 96.7%
13,CC(C)(C)c1ccc(OP(C)(=O)O)cc1,inactive: 108%
14,CP(=O)(Oc1ccccc1)N1CCOC1=O (configuration not stated),inactive: 109%
15,COc1ccccc1OP(C)(=O)Nc1c(C)n(C)n(-c2ccccc2)c1=O (configuration not stated),inactive: 98.6%
16,CP(=O)(OC12CC3CC(CC(C3)C1)C2)OC12CC3CC(CC(C3)C1)C2,inactive: 89.2%
